Measured values published in PubChem BioAssay AID651636 (Sanford-Burnham Center for Chemical Genomics, 2012).
The entries are a selection whose mix differs from that of the whole data set. Some tests of the compounds listed are not included; inactive here does not mean inactive elsewhere. The source made the active and inactive calls. No stated cut-off is given here; in the data, active means inhibition above about 38%; inactive means the rest.

Protein sequences, listed by entry. Tags and fused reporters are not part of them.
UniProt P32249, whole entry: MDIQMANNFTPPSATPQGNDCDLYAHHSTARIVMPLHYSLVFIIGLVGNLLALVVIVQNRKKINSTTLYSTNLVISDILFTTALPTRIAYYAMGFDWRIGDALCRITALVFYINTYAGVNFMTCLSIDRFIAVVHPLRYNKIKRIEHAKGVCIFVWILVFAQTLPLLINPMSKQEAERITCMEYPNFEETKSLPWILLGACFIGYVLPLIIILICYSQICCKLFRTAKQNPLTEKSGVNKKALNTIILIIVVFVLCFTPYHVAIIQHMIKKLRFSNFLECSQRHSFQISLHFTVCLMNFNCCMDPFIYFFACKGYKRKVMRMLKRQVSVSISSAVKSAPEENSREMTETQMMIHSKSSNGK

These molecules were tested against G-protein coupled receptor 183 (Homo sapiens) (UniProt P32249) (assay: EBI2 receptor antagonists, beta-arrestin recruitment, primary screen, cell-based, luminescence, 7a,25-OHC stimulation, uHTS (AID 651636;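 further: enzyme fragment complementation signal reports receptor beta-arrestin coupling in cells; 0% = agonist plus DMSO wells and 100% = wells without agonist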)). Details: 7a,25-OHC stimulated, at 5 µM, hits give high values.

Row | Structure (SMILES) | inhibition
1 | O=C(NCC1(N2CCCCC2)CCCCC1)c1cc([N+](=O)[O-])ccc1Cl | inactive: 10.4%
2 | CN1[C@@H]2CC[C@H]1CC(OC(=O)C(O)(c1ccccc1)c1ccccc1)C2 (some centres not stated) | inactive: 0.735%
3 | CCCCC(CC)C(=O)N1CCN(C/C=C/c2ccccc2)CC1 (configuration not stated) | active: 54.8%
4 | CCN(CC)CC(C)C(C)OC(=O)C(O)(c1ccccc1)c1ccccc1 (configuration not stated) | inactive: -6.48%
5 | COc1cc(SC)ccc1C(=O)NCC1(N(C)C)CCCCC1 | inactive: -13.3%
6 | CC(C)N1C(=O)CC2(CCN(CCOC(=O)C(O)(c3ccccc3)c3ccccc3)CC2)C1=O | inactive: -1.66%
7 | Cc1ccc(C(=O)NCC2(N3CCCCC3)CCCCC2)cc1 | inactive: -2.77%
8 | Cc1ccccc1C(=O)NCC1(N2CCCCC2)CCCCC1 | inactive: -8.42%
9 | CN(C)c1ccc(C(=O)NCC2(N(C)C)CCCCC2)cc1 | inactive: 11.5%
10 | CN(C)C1CCCC1OC(=O)C(O)(c1ccccc1)c1ccccc1 (configuration not stated) | inactive: 1.53%
11 | C=CCN1CCN(CCOC(=O)C(O)(c2ccccc2)c2ccccc2)CC1 | inactive: -4.09%
12 | O=C(NCC1(N2CCCCC2)CCCCC1)c1cc(F)c(F)cc1Cl | inactive: -11.1%
13 | COc1ccc(C(=O)NCC2(N(C)C)CCCCC2)cc1 | inactive: 2.69%
14 | CCN1CCCC(OC(=O)C2(O)c3ccccc3C=Cc3ccccc32)C1 (configuration not stated) | inactive: -4.09%
15 | Cc1cc(C(=O)NCC2(N3CCCCC3)CCCCC2)ccc1[N+](=O)[O-] | inactive: 2.75%
16 | O=C(NCC1(N2CCCCC2)CCCCC1)c1cccc(Br)c1 | inactive: 5.48%
17 | CN(C)C1(CNC(=O)c2ccc(Br)cc2)CCCCC1 | inactive: -19.9%
18 | COc1cc(C(=O)NCC2(N(C)C)CCCCC2)c([N+](=O)[O-])cc1OC | inactive: -0.463%
19 | COc1cccc(C(=O)NCC2(N3CCCCC3)CCCCC2)c1 | inactive: -0.288%
20 | COc1ccc(Cl)cc1C(=O)NCC1(N(C)C)CCCCC1 | inactive: 0.179%
21 | O=C(NCC1(N2CCCCC2)CCCCC1)c1cccc(Cl)c1 | inactive: -4.96%
22 | O=C(OC1CN2CCC1CC2)C(CO)(c1ccccc1)c1ccccc1 (configuration not stated) | inactive: 3.52%
23 | C=C(C)C#CC(O)(C(=O)OC1CCN(C)CC1)c1ccccc1 (configuration not stated) | inactive: -5.16%
24 | COc1ccc(Br)c(C(=O)NCC2(N3CCCCC3)CCCCC2)c1 | inactive: 15.2%
25 | CC(C)Oc1ccc(C(=O)NCC2(N(C)C)CCCCC2)cc1 | inactive: 3.05%
26 | O=C(OCCN1CCCC1)C(O)(c1ccccc1)c1ccccc1 | inactive: -11.7%
27 | CN(C)c1cccc(C(=O)NCC2(N(C)C)CCCCC2)c1 | inactive: -8.07%
